{
  "sequences": {"note": "Chains of the proteins cited; added tags and fusions are not shown.", "UniProt P25023, whole entry": "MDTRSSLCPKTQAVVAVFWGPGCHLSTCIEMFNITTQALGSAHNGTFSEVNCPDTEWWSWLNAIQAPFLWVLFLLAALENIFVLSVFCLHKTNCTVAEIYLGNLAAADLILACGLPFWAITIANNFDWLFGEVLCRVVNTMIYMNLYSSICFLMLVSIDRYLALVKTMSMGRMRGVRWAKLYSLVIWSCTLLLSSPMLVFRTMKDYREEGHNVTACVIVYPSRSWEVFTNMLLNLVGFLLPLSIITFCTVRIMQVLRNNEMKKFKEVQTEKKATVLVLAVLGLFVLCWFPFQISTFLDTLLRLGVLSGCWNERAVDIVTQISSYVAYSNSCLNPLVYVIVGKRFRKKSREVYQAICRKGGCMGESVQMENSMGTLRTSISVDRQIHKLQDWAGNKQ"},
  "source": "ChEMBL document CHEMBL1129039",
  "about": "(J Med Chem, 1996)",
  "target": "B2 bradykinin receptor (Rattus norvegicus, UniProt P25023)",
  "test": "In vitro Bradykinin receptor B2 antagonist activity by using rat uterus functional assay",
  "format": "tissue-based",
  "outline": "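Uterine horns from female Sprague-Dawley rats primed with stilbesterol (100 μg/kg) 18 h earlier. Tissue held at 1 g tension in De Jalon's solution, 31 °C, aerated. […] Potency by Arunlakshana-Schild analysis.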",
  "data": [
    {"molecule": "NC(N)=NCCCC(N)C(=O)NC(CCCN=C(N)N)C(=O)N1CCC[C@H]1C(=O)N1C[C@H](O)C[C@H]1C(=O)NCC(=O)N[C@@H](Cc1cccs1)C(=O)N[C@@H](CO)C(=O)N(CC(=O)N1C2CCCCC2C[C@H]1C(=O)NC(CCCN=C(N)N)C(=O)O)Cc1ccccc1", "note": "(stereo in doubt)", "values": [
      {"measurement": "pA2", "result": 7.3}
    ]}
  ]
}
